Measurements taken from patent US20090023682A1, “Composition Comprising Dietary Fat Complexer and Methods of Using Same” (published 2009).

What was measured:
[1] = Gastrointestinal side effects after a fatty meal (pizza and ice cream) in a healthy person; details: 1 capsule (120 mg), then 2 pieces of pizza and a bowl of ice cream
[2] = tested on: gastrointestinal lipases (gastric lipase, carboxylester lipase, pancreatic lipase); details: cited from earlier work

In the case of `CCCCCCCCCCC[C@@H](C[C@@H]1OC(=O)[C@H]1CCCCCC)OC(=O)[C@H](CC(C)C)NC=O`, the “duration of passing bright orange oil after diarrhea stopped” value [1] is given as “about 2 hours”, the “time to onset of severe cramping” value [1] is given as ≤ 1 h and the “fraction of normal lipase activity inhibited” value [2] is given as “about ⅓”.
